AlphaSeq binding of Ab-14 heavy chain variants to a spike HR2 peptide

From the AlphaSeq antibody data of Li et al. 2023 (doi:10.1038/s41467-023-39022-2), copy in the FLAb collection.

Target: peptide PDVDLGDISGINAS, taken from heptad repeat 2 (HR2) of SARS-CoV-2 spike.

Parent scFv Ab-14: VH joined to VL by three GGGGS repeats. Changes lie in the heavy chain CDRs alone.
VH: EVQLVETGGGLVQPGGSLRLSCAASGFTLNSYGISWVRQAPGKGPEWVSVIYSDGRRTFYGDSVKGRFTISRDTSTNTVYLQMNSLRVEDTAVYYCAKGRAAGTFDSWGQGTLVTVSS
VL: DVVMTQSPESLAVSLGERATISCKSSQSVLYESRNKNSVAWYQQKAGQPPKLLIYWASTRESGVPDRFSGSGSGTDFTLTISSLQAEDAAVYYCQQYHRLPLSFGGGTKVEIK

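The starting antibody came from a phage panning campaign against this peptide. Designed CDR sequences, proposed from the first random library and measured here. Several design methods are mixed in this list. In AlphaSeq, yeast of one mating type display the scFv and yeast of the other type display the target. Pairs that bind mate more often; barcode pairs of the diploids are counted by sequencing. A regression on co-assayed BCL2-family reference pairs converts the normalised counts of each replicate to an apparent Kd. Mating was done six times.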

The parent's heavy chain CDRs are GFTLNSYGIS, VIYSDGRRTFYGDSVK, GRAAGTFDS; each variant's own CDRs replace them letter for letter. This list holds designs with more than six substitutions. Values are log10 of the apparent Kd in nM; lower means stronger binding. Averages over replicates are reported, and they cover detected replicates only. "nd" means that the variant was in the library but no mating with the target was seen in any replicate; the authors take this as a sign of poor binding, and no number exists.

The variant GFDLDEYGIS | VIYADGRRTAYADSVK | GTNAGTFDV showed -0.89 (6 of 6 replicates; controls 0 of 18).
The variant GFDLNEYGIS | VIYADGRRTFYADSVK | GNTAGTFFS showed 0.21 (6 of 6 replicates; controls 0 of 18).
The variant GFDLNEYGIS | VIYADGRRTQYIDSVK | GETAGTFDN showed nd (0 of 6 replicates; controls 0 of 18).
The variant GFDLEKYGIS | VIYADGRRSVYADNVK | GMDGATNGF showed 3.55 (1 of 6 replicates; controls 1 of 18).
The variant GFSLNEYGIS | VIYADGIRQHYSDKVK | GVVFGNVLF showed nd (0 of 6 replicates; controls 0 of 18).
The variant GFDLDEYGIS | VIYADGIRYHYKDSVK | GNVVGSVLY showed nd (0 of 6 replicates; controls 0 of 18).
The variant GFDLDEYGIS | VIYADGQRTFYADSVK | GTNAGTFDV showed 0.23 (6 of 6 replicates; controls 0 of 18).
The variant GFDLGEYGIS | VIYADGMRSAYTDDVK | GAGANIITH showed nd (0 of 6 replicates; controls 0 of 18).
The variant GENIEEYGIS | VIYADGRRTAYAEDVK | GQSGGTIDT showed -0.27 (6 of 6 replicates; controls 0 of 18).
The variant GFNLNEYGIS | VIYADGRRYAYIDSVK | GIVVAKNLY showed nd (0 of 6 replicates; controls 0 of 18).
The variant GFTLTEYGIS | VIGSSGRRTFLTDFVK | GRFAGTFDS showed nd (0 of 6 replicates; controls 0 of 18).
The variant GFDLEEFGIS | VIYADGMRTAYSDAVK | GTFSGTVSV showed nd (0 of 6 replicates; controls 0 of 18).
The variant GFELDEMGIS | VIYADGKRAAYSENVK | GDNRGIFHL showed nd (0 of 6 replicates; controls 0 of 18).
The variant GFQIDEYGIS | VIYADGKRSMYADKVK | GVDADTMMD showed nd (0 of 6 replicates; controls 0 of 18).
The variant GGDIQEYGIS | VIYADGQRASYADAVK | GTIGGIFSD showed 1.44 (5 of 6 replicates; controls 0 of 18).
The variant GFDLNEYGIS | VIYADGQRTAYADDVK | GENAGTFDT showed -0.18 (6 of 6 replicates; controls 0 of 18).
The variant GFDLNEYGIS | VIYADGRRTFYSDSVK | GNAGGTFDM showed 1.70 (6 of 6 replicates; controls 1 of 18).
The variant GKSLDEYGIS | VIYADGRSRAYADDVK | GNDGGGKDL showed 0.65 (1 of 6 replicates; controls 0 of 18).
The variant GFDINEYGIS | VIYADGRRTFYTDSVK | GGNAGTFDI showed -0.30 (6 of 6 replicates; controls 1 of 18).
The variant GFDLEDYGIS | VIYADGMRTAYADSVK | GNVAGTFDM showed -0.34 (6 of 6 replicates; controls 1 of 18).
The variant GFSLDEYGIS | VIYADGRRTFYADSVK | GNVAGTFDK showed -1.16 (6 of 6 replicates; controls 0 of 18).
The variant GFDIEEMGIS | VIYADGIRQAYKNDVK | GKNVGRFAV showed nd (0 of 6 replicates; controls 0 of 18).
The variant GFDLNEYGIS | VIYADGVRTAYADNVK | GEVAGTFDT showed -0.49 (6 of 6 replicates; controls 0 of 18).
The variant GFDLNEYGIS | VIYADGRRTAYSDSVK | GEAAGTFDE showed -0.22 (6 of 6 replicates; controls 1 of 18).
The variant GFDLNEYGIS | VIYADGVRTAYAESVK | GNQAGTFDV showed -0.21 (6 of 6 replicates; controls 1 of 18).
The variant GQDINEYGIS | VIYADGMRKQYAQNVK | GENTFSVQI showed nd (0 of 6 replicates; controls 0 of 18).
The variant GFDLNEYGIS | VIYADGRRTFYADSVK | GEAAGTFNM showed -0.24 (6 of 6 replicates; controls 0 of 18).
The variant GFDLNEYGIS | VIYADGKRTAYTDSVK | GSNAGTFDV showed -0.65 (6 of 6 replicates; controls 0 of 18).
The variant GFDLNEYGIS | VIYADGRRTAYTDSVK | GEFAGTFDS showed -0.37 (6 of 6 replicates; controls 0 of 18).
The variant GFDLNEYGIS | VIYADGVRTAYADDVK | GKNAGTFDV showed -0.54 (6 of 6 replicates; controls 0 of 18).
The variant GFDLDEYGIS | VIYADGRRTFYSDSVK | GQAAGTFDQ showed 0.34 (6 of 6 replicates; controls 2 of 18).
The variant GFQLDEYGIS | VIYADGVRTFYADSVK | GEVAGTFDV showed -0.63 (6 of 6 replicates; controls 0 of 18).
The variant GFDLNEYGIS | VIYADGRRTAYADSVK | GQLAGTFDL showed -0.29 (6 of 6 replicates; controls 0 of 18).

Repeated from above, the 5 best binders with a signal in all replicates:

For GFSLDEYGIS | VIYADGRRTFYADSVK | GNVAGTFDK, the assay gave -1.16 (6 of 6 replicates; controls 0 of 18).
For GFDLDEYGIS | VIYADGRRTAYADSVK | GTNAGTFDV, the assay gave -0.89 (6 of 6 replicates; controls 0 of 18).
For GFDLNEYGIS | VIYADGKRTAYTDSVK | GSNAGTFDV, the assay gave -0.65 (6 of 6 replicates; controls 0 of 18).
For GFQLDEYGIS | VIYADGVRTFYADSVK | GEVAGTFDV, the assay gave -0.63 (6 of 6 replicates; controls 0 of 18).
For GFDLNEYGIS | VIYADGVRTAYADDVK | GKNAGTFDV, the assay gave -0.54 (6 of 6 replicates; controls 0 of 18).

A sequence measured in both rounds can read differently, since the two assays cover different ranges. Nonspecific signal, from three strains lacking the peptide, appeared in 1% of pairings of all heavy chain designs, centred on 2.08 (5% of these signals below 0.84); values are not corrected for it. The control count says in how many pairings with the empty strains this scFv gave a signal. In the paper, a design with two or fewer of six values counts as a poor binder.